Source: the supplement of paper PMC10949913

How the values were obtained:
CU-ACC1 [1] = experiment: AC50 viability; higher = less potent
In short: (§1)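 Three adrenocortical carcinoma cell lines were exposed for 48 h to library compounds at 11 concentrations in 1,536-well plates, then read by CellTiter-Glo luminescence. Signals were scaled per plate against vehicle and empty-well controls. From fitted concentration-response curves of inhibitory or non-responding classes alone, AC50 and area under the curve were obtained.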

NCI-H295R [2] = experiment: AC50 viability; higher = less potent
In short: as §1

CU-ACC1 [3] = experiment: area under concentration-response curve (viability) (AUC (a.u.)); higher = less active
In short: as §1

CU-ACC2 = experiment: as above
In short: as §1

NCI-H295R [4] = experiment: as above
In short: as §1

CU-ACC1 [5] = experiment: ExcessHSA synergy score with TAK-243; higher = less synergy (negative = synergistic); details: combined with: TAK-243 (MLN-7243) matrix, 9-point 1:2 dilution
Experimental: (§2)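 NCATS 10x10 matrix combination screen of 107 drugs with TAK-243 (MLN-7243, NCGC00386449-04) in ACC cells. Each drug was tested at 9 points with 1:2 dilution; viability was read by CellTiter-Glo as in the single-agent screen. Synergy is scored as ExcessHSA (sum of excess over highest single agent; negative = synergy) and the Beta interaction parameter (<1 synergy).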

NCI-H295R [6] = experiment: as above; details: combined with: TAK-243 (MLN-7243) matrix, 9-point 1:2 dilution
Experimental: as §2

NCc1ccc(OCCCc2sc(-c3ccc4c(c3)/C(=N/Nc3nc5ccccc5s3)CCC4)nc2C(=O)O)cc1 (48 h)
AC50 viability (CU-ACC1 [1]): 8.33 µM
AC50 viability (NCI-H295R [2]): 7.42 µM
area under concentration-response curve (CU-ACC1 [3]): 266
area under concentration-response curve (CU-ACC2): 328
area under concentration-response curve (NCI-H295R [4]): 341

NCc1ccc(OCCCc2sc(-c3ccc4c(c3)/C(=N/Nc3nc5ccccc5s3)CCC4)nc2C(=O)O)cc1 [WEHI-539]
ExcessHSA synergy score with TAK-243 (CU-ACC1 [5]): -136
ExcessHSA synergy score with TAK-243 (NCI-H295R [6]): 86
